Marks after values point to notes of the source that are not given here.
Assays:
PBMCs [1] = experiment: Alkaline comet assay, tail intensity; details: 3 h
Method: Blood was collected by venipuncture into heparinized vacutainers (BD Vacutainer Systems, Plymouth, UK), stored at room temperature, protected from light, and processed within 2 h. PBMCs were isolated by density gradient centrifugation (400 × g, 30 min) with separation medium (Histopaque® - 1077). After isolation, PBMCs were stained with Trypan blue and counted using a hemocytometer.
The comet assay is a sensitive technique for measuring DNA damage at the level of the individual eukaryotic cell. It is based upon the fact that denatured cleaved DNA fragments, or damaged DNA, migrate out of the cell at a different rate during electrophoresis than undamaged DNA [32]. Damaged DNA creates a “comet tail,” while the undamaged DNA remains within the cell membrane creating the “comet head.” The Comet assay is most commonly run under alkaline conditions to detect single and double-stranded DNA breaks.
PBMCs were isolated as previously described and then cultivated in PB-MAX™ Karyotyping Medium and incubated for 24 h at 37 ^∘C. […] Positive and negative controls were also set up equally. Treated cells were incubated at 37 ^∘C for 3 h and then centrifuged at 800 rpm (120 × g) for 5 min. The supernatant was removed and the cells were subsequently resuspended.
In a tube containing 120 µL of 0.7% LMPA, 80 µL of the sample was added for each tested concentration and controls. Prepared samples were applied to slides precoated with a 1% NMPA and covered with coverslips. After gel polymerization, coverslips were removed and slides were immersed in lysis buffer overnight at 4 ^∘C. Afterward, slides were washed with distilled water and placed into the electrophoresis tank with an electrophoresis solution (200 mM Na2EDTA, 10 M NaOH, and distilled water, pH > 13) for 20 min, followed by 20 min of electrophoresis (1 V/cm). After electrophoresis, slides were gently rinsed in the following sequences: phosphate-buffered saline (PBS) for 5 min, 70% (V/V) ethanol for 5 min, and finally 96% (V/V) ethanol for 15 min.
Prior to the fluorescent microscope analysis (U-MNU2; Olympus BX51, Tokyo, Japan), slides were rehydrated and stained with DAPI (1 µg/mL). DNA damage in treated cells was evaluated using Comet Assay IV software (Instem LSS Ltd., Staffordshire, UK), by measuring tail intensity (TI%), the percent of DNA in the tail of comets. For each concentration, as well as for positive and negative controls, at least 200 comets were analyzed. The Minimum Information for Reporting Comet Assay (MIRCA) protocol was used to report the results.

PBMCs [2] = experiment: Cytokinesis block micronucleus cytome (CBMN-cyt) assay; format: cell-based, human; parameters: unit not given here
From the text: DNA damage events were scored specifically in once-divided binucleated (BN) cells and included micronuclei (MNi), a biomarker of chromosome breakage and/or whole chromosome loss, nucleoplasmic bridges (NPBs), a biomarker of DNA misrepair and/or telomere end-fusions, and nuclear buds (NBUDs), a biomarker of elimination of amplified DNA and/or DNA repair complexes. Cytostatic and cytotoxic effects were examined by calculating the nuclear division index (NDI) and nuclear division cytotoxicity index (NDCI) based on the proportion of mono-, bi-, and multinucleated cells and necrotic and/or apoptotic cell ratios, respectively.
Whole blood, 400 µL per each treatment, was cultured in PB-MAX™ Karyotyping Medium for 72 h at 37 ^∘C. […] Untreated cultures were set up as negative controls. Cytochalasin B was added to the final concentration of 4.5 µg/mL to block cytokinesis.
After the cultivation period, cultures were centrifuged for 10 min at 1000 rpm (188 × g) and subjected to hypotonic treatment with 0.56% KCl and centrifuged immediately after the hypotonic addition. Hypotonic treatment was followed by three fixations in ice-cold glacial acetic acid + ethanol (1:3) fresh fixative. The fixed lymphocyte solution was dropped on coded microscope slides. Air-dried slides were stained in 5% Giemsa for 7 min. […] Frequencies of mononuclear, binuclear, trinuclear, and quadrinuclear cells, as well as apoptotic and necrotic cells, were scored in a total number of at least 500 cells. All genotoxicity and cytotoxicity parameters were recognized according to the criteria given by Fenech.

Compound: CN(C)CCOC(c1ccccc1)c1ccccc1.Cn1c(=O)c2[nH]c(Cl)nc2n(C)c1=O [DMH, 2-benzhydryloxy-N,N-dimethylethanamine; 8-chloro-1,3-dimethyl-7H-purine-2,6-dione]
- Tail intensity (mean ± SD) (PBMCs [1]; concentration of DMH 36.36 ng/mL): 2.51 ± 1.77%
- Tail intensity (mean ± SD) (PBMCs [1]; concentration of DMH 54.55 ng/mL): 2.83 ± 1.54%
- Tail intensity (mean ± SD) (PBMCs [1]; concentration of DMH 72.73 ng/mL): 3.44 ± 1.13%
- Tail intensity (mean ± SD) (PBMCs [1]; concentration of DMH 90.91 ng/mL): 3.47 ± 1.08%
- Tail intensity (mean ± SD) (PBMCs [1]; concentration of DMH 109.9 ng/mL): 3.59 ± 0.79%
- BN cells with MNi (mean ± SD) (PBMCs [2]; DMH 72.73 ng/mL): 4 ± 1.25^a
- BN cells with MNi (mean ± SD) (PBMCs [2]; DMH 90.91 ng/mL): 5.75 ± 1.92
- BN cells with MNi (mean ± SD) (PBMCs [2]; DMH 109.09 ng/mL): 6.5 ± 2.34
